Biological target: rat mGluR5 (Rattus norvegicus (Rat), UniProt P31424)
Experiment: cell-based

Sequences of proteins named here, by UniProt entry; tags and fusion partners are left off. Residues count along the entry.
UniProt P31424, 21-1203: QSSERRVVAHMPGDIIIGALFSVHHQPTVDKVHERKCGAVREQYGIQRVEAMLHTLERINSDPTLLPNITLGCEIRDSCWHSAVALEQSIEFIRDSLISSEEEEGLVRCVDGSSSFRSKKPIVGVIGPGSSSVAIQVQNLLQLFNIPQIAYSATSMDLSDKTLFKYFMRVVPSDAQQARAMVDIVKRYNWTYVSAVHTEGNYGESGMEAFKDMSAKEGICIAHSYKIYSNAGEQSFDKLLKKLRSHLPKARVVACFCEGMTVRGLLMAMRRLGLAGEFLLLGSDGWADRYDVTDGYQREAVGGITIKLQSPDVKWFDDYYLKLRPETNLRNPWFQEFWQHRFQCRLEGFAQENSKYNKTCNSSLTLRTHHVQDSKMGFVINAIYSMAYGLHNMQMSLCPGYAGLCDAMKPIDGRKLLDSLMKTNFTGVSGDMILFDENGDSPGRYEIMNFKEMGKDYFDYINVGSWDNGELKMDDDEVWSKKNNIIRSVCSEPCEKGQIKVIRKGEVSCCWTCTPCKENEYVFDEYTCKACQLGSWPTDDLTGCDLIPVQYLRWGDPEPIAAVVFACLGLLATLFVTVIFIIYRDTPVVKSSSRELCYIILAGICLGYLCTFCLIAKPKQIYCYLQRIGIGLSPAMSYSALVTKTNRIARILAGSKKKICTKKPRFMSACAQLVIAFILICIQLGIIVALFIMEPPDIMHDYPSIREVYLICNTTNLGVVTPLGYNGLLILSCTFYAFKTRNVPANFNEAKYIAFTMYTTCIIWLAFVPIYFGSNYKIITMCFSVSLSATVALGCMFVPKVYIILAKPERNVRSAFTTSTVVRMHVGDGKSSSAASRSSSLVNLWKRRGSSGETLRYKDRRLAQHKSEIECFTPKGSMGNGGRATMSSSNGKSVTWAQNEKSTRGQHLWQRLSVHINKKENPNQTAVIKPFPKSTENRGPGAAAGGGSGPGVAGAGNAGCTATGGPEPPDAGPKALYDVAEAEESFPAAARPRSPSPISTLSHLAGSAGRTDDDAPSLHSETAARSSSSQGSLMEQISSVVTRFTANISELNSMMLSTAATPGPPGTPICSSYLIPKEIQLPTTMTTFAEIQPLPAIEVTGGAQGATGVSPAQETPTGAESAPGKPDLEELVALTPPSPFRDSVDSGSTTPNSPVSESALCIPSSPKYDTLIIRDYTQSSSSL

Cc1nc(NC(=O)c2cccc(Oc3cccnc3)c2)nn1C
IC50: > 30 µM

Reference: patent publication US8796295B2, “Substituted benzamide analogs as mGluR5 negative allosteric modulators and methods of making and using the same” (priority 2009, dated 2014)
